Test: Phase 1/2a study, safety
[1] = overall (N=73), regardless of grade
[2] = ≤65 mg BID (N=23), regardless of grade

Structure (SMILES): C=CC(=O)N[C@H]1C=C(C)c2c(-c3cnc4ccccc4c3)c3c(N)ncnc3n2C1
- Diarrhea (all dose levels): 30 % of patients
- Dose reduction because of rash (all dose levels): three
- Drug-related deaths (all dose levels): No drug-related deaths
- Grade 3 or 4 ALT/AST increase (all dose levels): four
- Pneumonitis possibly related to treatment (all dose levels): four
- Rash (all dose levels): 80 % of patients
- Treatment-related discontinuation, reason (all dose levels): allergic reaction
- Treatment-related discontinuations due to fatigue (all dose levels): 1
- Treatment-related discontinuations due to hepatic toxicity (all dose levels): 2
- Treatment-related discontinuations due to pneumonitis (all dose levels): 2
- Treatment-related serious AE diarrhea (all dose levels): 1
- Treatment-related serious AE hypersensitivity reaction (all dose levels): 1
- Treatment-related serious AE pneumonitis (all dose levels): 2
- Grade 3 diarrhea, cases (both at the highest dose level tested): two
- Pneumonitis, grade (case 3) (discontinued pembrolizumab and chemotherapy about 1 month before): grade 3
- Dose-limiting toxicities, DLR (Day 1-21) (dose level 30, BID, 8 patients): 0
- Dose-limiting toxicities, DLT (Day 22-EOT) (dose level 30, BID, 8 patients): 0
- Dose-limiting toxicities, DLR (Day 1-21) (dose level 45, BID, 1 patient): 0
- Dose-limiting toxicities, DLT (Day 22-EOT) (dose level 45, BID, 1 patient): 0
- Dose-limiting toxicities, DLR (Day 1-21) (dose level 65, BID, 14 patients): 0
- Dose-limiting toxicities, DLT (Day 22-EOT) (dose level 65, BID, 14 patients, hepatic): 1 (hepatic)
- Dose-limiting toxicities, DLR (Day 1-21) (dose level 100, BID, 39 patients): 0
- Dose-limiting toxicities, DLT (Day 22-EOT) (dose level 100, BID, 39 patients, pneumonitis): 1 (pneumonitis)
- Dose-limiting toxicities, DLR (Day 1-21) (dose level 150, BID, 11 patients, diarrhea): 2 (diarrhea)
- Dose-limiting toxicities, DLT (Day 22-EOT) (dose level 150, BID, 11 patients, pneumonitis, hepatic): 2 (pneumonitis,
- Discontinued because of AST/ALT elevation (of four patients with grade 3 or 4 ALT/AST increase): Two of the four
- Diarrhea, share grade 1 (of patients with diarrhea): 68%
- Diarrhea, share grade 2 (of patients with diarrhea): 23%
- Diarrhea, share grade 3 (of patients with diarrhea): 9%
- Treatment-related rash, share grade 1 (of patients with rash): 70%
- Treatment-related rash, share grade 2 (of patients with rash): 28%
- Treatment-related rash, share grade 3 (of patients with rash): 2%
- TEAE ≥Grade 3 ALT increased (overall (N=73)): 3 (4.1) No (%)
- TEAE ≥Grade 3 AST increased (overall (N=73)): 3 (4.1) No (%)
- TEAE ≥Grade 3 anemia (overall (N=73)): 8 (11.0) No (%)
- TEAE ≥Grade 3 diarrhea (overall (N=73)): 3 (4.1) No (%)
- TEAE ≥Grade 3 disease progression (overall (N=73)): 3 (4.1) No (%)
- TEAE ≥Grade 3 dyspnea (overall (N=73)): 4 (5.5) No (%)
- TEAE ≥Grade 3 pneumonia (overall (N=73)): 4 (5.5) No (%)
- TRAE AST increased, number (overall (N=73), all grade): 8
- TRAE AST increased, percent (overall (N=73), all grade): (11) %
- TRAE alopecia, number (overall (N=73), all grade): 9
- TRAE alopecia, percent (overall (N=73), all grade): (12) %
- TRAE anemia, number (overall (N=73), all grade): 14
- TRAE anemia, percent (overall (N=73), all grade): (19) %
- TRAE decreased appetite, number (overall (N=73), all grade): 8
- TRAE decreased appetite, percent (overall (N=73), all grade): (11) %
- TRAE diarrhea, number (overall (N=73), all grade): 22
- TRAE diarrhea, percent (overall (N=73), all grade): (30) %
- TRAE dry skin, number (overall (N=73), all grade): 13
- TRAE dry skin, percent (overall (N=73), all grade): (18) %
- TRAE fatigue, number (overall (N=73), all grade): 15
- TRAE fatigue, percent (overall (N=73), all grade): (21) %
- TRAE nausea, number (overall (N=73), all grade): 12
- TRAE nausea, percent (overall (N=73), all grade): (16) %
- TRAE paronychia, number (overall (N=73), all grade): 23
- TRAE paronychia, percent (overall (N=73), all grade): (32) %
- TRAE rash, number (overall (N=73), all grade): 58
- TRAE rash, percent (overall (N=73), all grade): (80) %
- TRAE AST increased, number (overall (N=73), grade ≥3): 3
- TRAE AST increased, percent (overall (N=73), grade ≥3): (4) %
- TRAE alopecia, number (overall (N=73), grade ≥3): 0
- TRAE anemia, number (overall (N=73), grade ≥3): 7
- TRAE anemia, percent (overall (N=73), grade ≥3): (9.6) %
- TRAE decreased appetite, number (overall (N=73), grade ≥3): 0
- TRAE diarrhea, number (overall (N=73), grade ≥3): 2
- TRAE diarrhea, percent (overall (N=73), grade ≥3): (3) %
- TRAE dry eye, number (overall (N=73), grade ≥3): 0
- TRAE dry skin, number (overall (N=73), grade ≥3): 0
- TRAE fatigue, number (overall (N=73), grade ≥3): 0
- TRAE nausea, number (overall (N=73), grade ≥3): 0
- TRAE paronychia, number (overall (N=73), grade ≥3): 0
- TRAE rash, number (overall (N=73), grade ≥3): 1
- TRAE rash, percent (overall (N=73), grade ≥3): (1) %
- TRAE stomatitis, number (overall (N=73), grade ≥3): 1
- TRAE stomatitis, percent (overall (N=73), grade ≥3): (1) %
- TEAE ALT increased, number (percent) [1]: 8 (11.0)
- TEAE AST increased, number (percent) [1]: 10 (13.7)
- TEAE alopecia, number (percent) [1]: 12 (16.4)
- TEAE anemia, number (percent) [1]: 23 (31.5)
- TEAE arthralgia, number (percent) [1]: 12 (16.4)
- TEAE constipation, number (percent) [1]: 16 (21.9)
- TEAE cough, number (percent) [1]: 16 (21.9)
- TEAE decreased appetite, number (percent) [1]: 20 (27.4)
- TEAE diarrhea, number (percent) [1]: 26 (35.6)
- TEAE dizziness, number (percent) [1]: 10 (13.7)
- TEAE dry skin, number (percent) [1]: 15 (20.5)
- TEAE dyspnea, number (percent) [1]: 20 (27.4)
- TEAE edema peripheral, number (percent) [1]: 10 (13.7)
- TEAE fatigue, number (percent) [1]: 23 (31.5)
- TEAE headache, number (percent) [1]: 11 (15.1)
- TEAE insomnia, number (percent) [1]: 8 (11.0)
- TEAE nausea, number (percent) [1]: 20 (27.4)
- TEAE paronychia, number (percent) [1]: 26 (35.6)
- TEAE pyrexia, number (percent) [1]: 10 (13.7)
- TEAE rash, number (percent) [1]: 61 (83.6)
- TEAE vomiting, number (percent) [1]: 14 (19.2)
- Pneumonitis, grade (case 2) (patient with history of pneumonitis with osimertinib): grade 2
- Safety and tolerability (recurrent or metastatic EGFR ex20ins NSCLC, previously treated): favorable safety and tolerability
- Pneumonitis, grade (case 1) (resolved after dose hold and corticosteroids, resumed at same dose): grade 1
- Pneumonitis, grade (case 4) (ultimately deemed unrelated, Pneumocystis jirovecii pneumonia): grade 3
- TEAE ≥Grade 3 anemia (≤65 mg BID (N=23)): 5 (21.7) No (%)
- TEAE ≥Grade 3 disease progression (≤65 mg BID (N=23)): 2 (8.7) No (%)
- TRAE AST increased, number (≤65 mg BID (N=23), all grade): 3
- TRAE AST increased, percent (≤65 mg BID (N=23), all grade): (13) %
- TRAE alopecia, number (≤65 mg BID (N=23), all grade): 3
- TRAE alopecia, percent (≤65 mg BID (N=23), all grade): (13) %
- TRAE anemia, number (≤65 mg BID (N=23), all grade): 7
- TRAE anemia, percent (≤65 mg BID (N=23), all grade): (30) %
- TRAE decreased appetite, number (≤65 mg BID (N=23), all grade): 4
- TRAE decreased appetite, percent (≤65 mg BID (N=23), all grade): (17) %
- TRAE diarrhea, number (≤65 mg BID (N=23), all grade): 4
- TRAE diarrhea, percent (≤65 mg BID (N=23), all grade): (17) %
- TRAE dry eye, number (≤65 mg BID (N=23), all grade): 1
- TRAE dry eye, percent (≤65 mg BID (N=23), all grade): (4) %
- TRAE dry skin, number (≤65 mg BID (N=23), all grade): 6
- TRAE dry skin, percent (≤65 mg BID (N=23), all grade): (26) %
- TRAE fatigue, number (≤65 mg BID (N=23), all grade): 5
- TRAE fatigue, percent (≤65 mg BID (N=23), all grade): (22) %
- TRAE nausea, number (≤65 mg BID (N=23), all grade): 5
- TRAE nausea, percent (≤65 mg BID (N=23), all grade): (22) %
- TRAE rash, number (≤65 mg BID (N=23), all grade): 19
- TRAE rash, percent (≤65 mg BID (N=23), all grade): (83) %
- TRAE stomatitis, number (≤65 mg BID (N=23), all grade): 2
- TRAE stomatitis, percent (≤65 mg BID (N=23), all grade): (9) %
- TRAE AST increased, number (≤65 mg BID (N=23), grade ≥3): 1
- TRAE AST increased, percent (≤65 mg BID (N=23), grade ≥3): (4.3) %
- TRAE alopecia, number (≤65 mg BID (N=23), grade ≥3): 0
- TRAE anemia, number (≤65 mg BID (N=23), grade ≥3): 4
- TRAE anemia, percent (≤65 mg BID (N=23), grade ≥3): (17.4) %
- TRAE decreased appetite, number (≤65 mg BID (N=23), grade ≥3): 0
- TRAE diarrhea, number (≤65 mg BID (N=23), grade ≥3): 0
- TRAE dry eye, number (≤65 mg BID (N=23), grade ≥3): 0
- TRAE dry skin, number (≤65 mg BID (N=23), grade ≥3): 0
- TRAE fatigue, number (≤65 mg BID (N=23), grade ≥3): 0
- TRAE nausea, number (≤65 mg BID (N=23), grade ≥3): 0
- TRAE paronychia, number (≤65 mg BID (N=23), grade ≥3): 0
- TRAE rash, number (≤65 mg BID (N=23), grade ≥3): 0
- TRAE stomatitis, number (≤65 mg BID (N=23), grade ≥3): 0
- TEAE ALT increased, number (percent) [2]: 2 (8.7)
- TEAE AST increased, number (percent) [2]: 3 (13.0)
- TEAE alopecia, number (percent) [2]: 3 (13.0)
- TEAE anemia, number (percent) [2]: 12 (52.2)
- TEAE arthralgia, number (percent) [2]: 4 (17.4)
- TEAE constipation, number (percent) [2]: 7 (30.4)
- TEAE cough, number (percent) [2]: 4 (17.4)
- TEAE decreased appetite, number (percent) [2]: 8 (34.8)
- TEAE diarrhea, number (percent) [2]: 7 (30.4)
- TEAE dizziness, number (percent) [2]: 2 (8.7)
- TEAE dry eye, number (percent) [2]: 1 (4.3)
- TEAE dry skin, number (percent) [2]: 6 (26.1)
- TEAE dyspnea, number (percent) [2]: 6 (26.1)
- TEAE edema peripheral, number (percent) [2]: 4 (17.4)
- TEAE fatigue, number (percent) [2]: 5 (21.7)
- TEAE headache, number (percent) [2]: 4 (17.4)
- TEAE insomnia, number (percent) [2]: 2 (8.7)
- TEAE nausea, number (percent) [2]: 6 (26.1)
- TEAE pyrexia, number (percent) [2]: 2 (8.7)
- TEAE rash, number (percent) [2]: 20 (87.0)
- TEAE stomatitis, number (percent) [2]: 2 (8.7)
- TEAE vomiting, number (percent) [2]: 4 (17.4)
